Legend:
Assay in all cases: FP
Settings in all cases: domain or fragment
Shc1-pTyr239 = target: Shc1-pTyr239
[1] = target: DnaJ-A1-pTyr381 ∆N peptide (human) (UniProt P31689)
EGFR-pTyr1086 = target: EGFR-pTyr1086
MidT-pTyr324 = target: MidT-pTyr324
Shc1-pTyr317 = target: Shc1-pTyr317
VCP-pTyr805-tail7 = target: VCP-pTyr805-tail7

Substance	Kd (Shc1-pTyr239) [µM]	Kd [1] [µM]	Kd (EGFR-pTyr1086) [µM]	Kd (MidT-pTyr324) [µM]	Kd (Shc1-pTyr317) [µM]	Kd (VCP-pTyr805-tail7) [µM]
L. pneumophila RavO SH2 domain (Gly212-Asp406) (from UniProt Q5ZWF6 212-406)	0.2	17.6	7.06	6.6	1.14	10.1
L. longbeachae LUSH SH2 domain (Ser3-Ser171)	–	–	1.64	–	–	–
